Positions count from the first letter of the chain named.
B1: Fab LC 6 (Fab, V domains shown)
VH: EVQLVESGGGLVQPGGSLRLSCAASGFNFYYSSIHWVRQAPGKGLEWVASISPYSGYTSYADSVKGRFTISADTSKNTAYLQMNSLRAEDTAVYYCARQPTHYYYYAKGYKAMDYWGQGTLVTVSS
VL: DIQMTQSPSSLSASVGDRVTITCRASQSVSSAVAWYQQKPGKAPKLLISWASWLYSGVPSRFSGSGSGTDFTLTISSLQPEDFATYYCQQYSYSPFTFGQGTKVEIK
B2: Fab LC10 (Fab, V domains shown)
VH: B1 VH
VL: B1 VL with S49W, W53S
B3: Fab LC 9 (Fab, V domains shown)
VH: B1 VH
VL: B1 VL with S49W, W50Y
B4: Fab LC 11 (Fab, V domains shown)
VH: EVQLVESGGGLVQPGGSLRLSCAASGFNLSYSYIHWVRQAPGKGLEWVASIYSSYGSTYYADSVKGRFTISADTSKNTAYLQMNSLRAEDTAVYYCARSYHHSDKYYYAWSYALDYWGQGTLVTVSS
VL: DIQMTQSPSSLSASVGDRVTITCRASQSVSSAVAWYQQKPGKAPKLLIYSASSLYSGVPSRFSGSGSGTDFTLTISSLQPEDFATYYCQQYYPLTFGQGTKVEIK

Sequences of proteins named here, by UniProt entry; tags and fusion partners are left off. A change or cut given only in a name is not applied to a line headed by its entry. Residues count along the entry.
UniProt P56817, 22-457: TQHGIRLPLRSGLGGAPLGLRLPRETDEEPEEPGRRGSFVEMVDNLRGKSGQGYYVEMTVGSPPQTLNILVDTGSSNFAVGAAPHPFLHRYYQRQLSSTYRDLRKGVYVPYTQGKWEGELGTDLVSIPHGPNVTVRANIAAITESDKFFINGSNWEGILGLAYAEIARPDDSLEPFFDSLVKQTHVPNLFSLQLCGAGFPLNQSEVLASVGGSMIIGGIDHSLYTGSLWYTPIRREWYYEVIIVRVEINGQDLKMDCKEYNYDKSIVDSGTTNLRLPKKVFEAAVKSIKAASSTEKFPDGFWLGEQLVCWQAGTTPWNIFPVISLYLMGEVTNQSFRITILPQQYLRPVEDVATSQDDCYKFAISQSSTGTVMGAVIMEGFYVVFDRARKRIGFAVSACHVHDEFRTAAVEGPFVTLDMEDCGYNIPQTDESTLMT

Columns and labels:
[1] = target: T1, human BACE1 extracellular domain, amino acids 1-457 of SEQ ID NO:49 (human, UniProt P56817 22-457, biotinylated in the phage sorting, phage ELISAs and the competition ELISA (sites not given)); experiment: one-point phage competition ELISA: ratio of the ELISA signal of Fab-displaying phage on plate-immobilized BACE1 without / with 20 nM BACE1 in solution
T1 construct: also called human BACE1 ECD; hBACE1
Description: (§1) Screening of the libraries for affinity maturation of initially obtained antibodies was carried out similarly as described above. […] For rounds 2 and 3, 20 nM and 5 nM biotinylated BACE1 was incubated with amplified phage, respectively. Clones (96) from each of the two libraries were screened in a one-point competition ELISA, where 20 nM of BACE1 was used in solution to compete the phage particle from binding to plate-immobilized BACE1 as described below.
(§2) A plate immobilized with BACE1 was prepared by capturing 2 μg/ml biotinylated BACE1 for 15 min using a 384-well Maxisorp Immunoplate that was previously coated with 2 μg/ml of Neutravidin at 4° C. for overnight and blocked with Blocking Buffer. The culture supernatants from individual clones grown in a 96-well format were diluted 20-fold in PBT buffer and was incubated with or without 20 nM BACE1 at room temperature for 1 h. The mixture was transferred to the plate with immobilized BACE1 and incubated for 15 min. The plate was washed six times by PT buffer and the bound phage was detected by anti-M13-HRP as described above. The ratio between the ELISA signal from the well in the absence and the presence of BACE1 in solution indicates the affinity of the clone, where higher ratios indicate the higher affinities.

[2] = target: T1, human BACE1 extracellular domain, amino …; experiment: one-point competition phage ELISA, plate-immobilized BACE1, 20 nM BACE1 in solution
Description: as §1, §2

[3] = target: T1, human BACE1 extracellular domain, amino …; experiment: phage competition ELISA IC50, against parent Fab12
Description: (§3) Single colonies (in XL1 blue cells) of the selected clones were picked up and grown in 1 ml 2YT broth supplemented with 50 μg/ml carbenicillin, 10 μg/ml tetracycline and M13KO7 at 37° C. for 2 h. Kanamycin (25 μg/ml) was added to the culture, which continued to grow for 6 h. The culture was transferred to 30 ml 2YT broth supplemented with 50 μg/ml carbenicillin and 25 μg/mlkanamycin and grown at 37° C. overnight. Phage were harvested and purified as previously described (Sidhu, S. S. et al. Methods Enzymol. 328: 333-363 (2000)). The purified Fab-displaying phage were serially diluted in PBT buffer and tested for binding to BACE1 immobilized on a plate. A fixed phage concentration that gives 80% of saturation signals was selected for the subsequent competition ELISA. The competition was conducted by incubating the fixed, sub-saturating Fab-displaying phage with serial dilutions of BACE1 for 1 h and then transferred to the BACE1-immobulized plate for 15 min to capture unbound phage. The plate was then washed for 8 times and bound phage were detected by anti-M13-HRP.
(§4) To estimate the affinity of these 6 clones, phage competition ELISAs were performed, as described above, and IC₅₀ values were determined (FIG. 7). The IC₅₀ values were determined by fitting the data to a four-parameter logistic equation developed by Marquardt (Marquardt, D. W. SIAM J. Appl. Math. 11: 431-441 (1963)) using Kaleidagraph (Synergy Software) and are shown below in Table 2.

[4] = target: T1, human BACE1 extracellular domain, amino …; experiment: phage competition ELISA: Fab-displaying phage on plate-immobilized BACE1, serial dilutions of BACE1 in solution
Description: as §3, §4

[5] = target: T1, human BACE1 extracellular domain, amino …; experiment: cell-based or functional assay
[6] = target: T1, human BACE1 extracellular domain, amino …; experiment: phage competition ELISA IC50, against parent Fab5
Description: as §3, with “The competition was conducted by incubating the fixed, sub-saturating Fab-displaying phage with serial dilutions of BACE1 for 1 h and then transferred to the BACE1-immobulized plate for 15 min to capture unbound phage.” left out
as §4

Binder	Competition ELISA Ratio [1]	ratio of ELISA signal in the absence to the presence of BACE1 in solution [2] [ratio]	Fold affinity improvement [3] [fold]	IC50 [4] [nM]	IC50 (nM), HTRF enzyme activity assay [5] [nM]	Fold affinity improvement [6] [fold]
B1	4	> 4	156	0.12	–	–
B2	7.8	> 4	378	0.12	180	–
B3	11.7	> 4	378	0.12	–	–
B4	4.4	> 4	–	0.88	–	24

From patent US20140286963A1 (Genentech, published 2014)
